{"source": "patent US20190091218A1", "about": "(priority 2016, published 2019)", "origin": "cited, not measured here", "details": "standard 10 mg oral dose", "data": [{"smiles": "CC(C)(O)c1ccccc1CC[C@@H](SCC1(CC(=O)O)CC1)c1cccc(/C=C/c2ccc3ccc(Cl)cc3n2)c1", "note": "[montelukast]", "values": [{"measurement": "mean Cmax", "value": 353, "unit": "ng/mL"}]}]}
